Measured values: BindingDB's records for PubMed 11303071 (Banyu Pharmaceutical, 2001)

Amino acid sequences for entries named in this document (tags omitted). A change or cut given only in a name is not applied to a line headed by its entry.
UniProt P11229: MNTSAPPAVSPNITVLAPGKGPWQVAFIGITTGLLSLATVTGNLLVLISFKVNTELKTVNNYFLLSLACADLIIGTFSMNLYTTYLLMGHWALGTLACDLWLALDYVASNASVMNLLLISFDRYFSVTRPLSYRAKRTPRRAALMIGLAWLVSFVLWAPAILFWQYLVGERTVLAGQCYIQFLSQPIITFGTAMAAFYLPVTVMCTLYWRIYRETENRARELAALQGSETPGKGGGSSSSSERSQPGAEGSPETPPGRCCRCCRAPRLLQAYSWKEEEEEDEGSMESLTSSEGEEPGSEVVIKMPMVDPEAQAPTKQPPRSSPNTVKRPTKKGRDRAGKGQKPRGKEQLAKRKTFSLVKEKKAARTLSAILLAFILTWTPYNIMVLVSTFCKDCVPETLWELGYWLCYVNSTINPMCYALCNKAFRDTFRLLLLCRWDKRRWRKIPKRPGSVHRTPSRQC
UniProt P08172, whole entry: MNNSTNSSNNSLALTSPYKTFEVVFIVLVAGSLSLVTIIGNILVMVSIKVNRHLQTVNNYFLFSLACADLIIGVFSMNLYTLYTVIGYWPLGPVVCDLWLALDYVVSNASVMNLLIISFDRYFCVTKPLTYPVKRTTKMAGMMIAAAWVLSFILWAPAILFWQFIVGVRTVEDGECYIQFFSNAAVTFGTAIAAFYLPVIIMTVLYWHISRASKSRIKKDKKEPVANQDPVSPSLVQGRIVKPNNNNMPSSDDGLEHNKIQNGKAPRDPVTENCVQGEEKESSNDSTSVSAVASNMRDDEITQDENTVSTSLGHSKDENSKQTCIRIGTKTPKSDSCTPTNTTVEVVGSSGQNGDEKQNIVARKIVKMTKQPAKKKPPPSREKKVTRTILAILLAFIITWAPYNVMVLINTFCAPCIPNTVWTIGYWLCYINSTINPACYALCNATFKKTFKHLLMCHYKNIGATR
UniProt P20309, whole entry: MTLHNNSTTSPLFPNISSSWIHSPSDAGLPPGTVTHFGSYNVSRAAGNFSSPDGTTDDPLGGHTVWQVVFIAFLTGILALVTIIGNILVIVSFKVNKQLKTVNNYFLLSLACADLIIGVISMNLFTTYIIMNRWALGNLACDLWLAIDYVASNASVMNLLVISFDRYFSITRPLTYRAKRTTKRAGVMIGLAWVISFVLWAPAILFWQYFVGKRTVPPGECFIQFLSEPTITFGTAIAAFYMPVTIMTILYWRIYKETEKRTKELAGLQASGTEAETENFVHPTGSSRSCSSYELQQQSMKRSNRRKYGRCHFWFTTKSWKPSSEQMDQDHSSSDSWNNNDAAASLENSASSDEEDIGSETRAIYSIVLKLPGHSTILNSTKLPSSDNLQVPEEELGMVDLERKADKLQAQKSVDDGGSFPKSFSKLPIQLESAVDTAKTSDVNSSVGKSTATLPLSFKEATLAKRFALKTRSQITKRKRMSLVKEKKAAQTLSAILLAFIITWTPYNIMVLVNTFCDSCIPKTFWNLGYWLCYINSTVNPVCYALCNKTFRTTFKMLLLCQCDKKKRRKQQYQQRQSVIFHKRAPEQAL

How the values were obtained:
[1] = molecular target: Muscarinic acetylcholine receptor M1 (Homo sapiens, UniProt P11229)
[2] = molecular target: Muscarinic acetylcholine receptor M2 (Homo sapiens, UniProt P08172)
[3] = molecular target: Muscarinic acetylcholine receptor M3 (Homo sapiens, UniProt P20309)

Work on `NC(=O)C(c1ccccc1)(c1ccccc1)[C@@H]1CCN(CCc2ccc3c(c2)CCO3)C1` [Enablex] yielded a pKi [1] of 8.26.

With `CC(C)[N+]1(C)[C@@H]2CC[C@H]1CC(OC(=O)[C@@H](CO)c1ccccc1)C2` (some centres undefined) [NSC_3746] the pKi [2] was 8.82, the pKi [1] was 9.31 and the pKi [3] was 9.29.

pKi: −log10 of the molar value.
